Assay results reported in PubChem BioAssay AID588814 (The Scripps Research Institute Molecular Screening Center, 2011).
The entries are a selection whose mix differs from that of the whole data set. Calls of active or inactive are those of the source.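 How the source made its calls: active means activation above the run's mean compound activation plus 3 SD (cut at about 16% in these data); inactive means the rest.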

The chains behind the UniProt entries cited, without tags or fusion partners.
UniProt P11229, whole entry: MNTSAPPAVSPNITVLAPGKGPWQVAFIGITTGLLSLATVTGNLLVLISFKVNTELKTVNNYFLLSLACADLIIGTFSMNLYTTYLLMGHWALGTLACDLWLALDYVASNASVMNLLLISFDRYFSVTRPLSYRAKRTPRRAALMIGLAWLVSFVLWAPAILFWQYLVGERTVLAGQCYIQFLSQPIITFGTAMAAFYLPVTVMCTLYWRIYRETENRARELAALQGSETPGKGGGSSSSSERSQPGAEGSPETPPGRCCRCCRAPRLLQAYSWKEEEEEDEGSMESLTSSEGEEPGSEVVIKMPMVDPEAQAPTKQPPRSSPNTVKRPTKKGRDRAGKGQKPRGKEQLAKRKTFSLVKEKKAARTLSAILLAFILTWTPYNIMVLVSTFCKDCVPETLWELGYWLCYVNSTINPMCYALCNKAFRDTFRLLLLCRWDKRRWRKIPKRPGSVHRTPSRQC

Biological target: Muscarinic acetylcholine receptor M1 (Homo sapiens) (UniProt P11229)
Experiment: CHRM1 activation via calcium signal – Fluo-8 calcium fluorescence, CHO-K1 cells, HTS, primary screen (AID 588814);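 further: peak over basal fluorescence ratio within a 140 s kinetic read after compound addition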
Settings: CHO-K1 hM1, Fluo-8 calcium fluorescence, agonist mode; at 3 µM; hits give high values; 0% DMSO, 100% acetylcholine EC100

| SMILES | activation |
| --- | --- |
| CC(C)(C)n1nnnc1C(c1ccccc1OC(F)(F)F)N1CCC(n2c(=O)[nH]c3ccccc32)CC1 (configuration not stated) | inactive: 5.77% |
| CSc1ccc(C(=O)NCC2(N3CCOCC3)CCCCC2)cc1 | inactive: -5.79% |
| O=C(NCC1(N2CCCCC2)CCCCC1)c1cccc([N+](=O)[O-])c1 | inactive: -5.3% |
| N#CC1(Nc2ccccc2)CCN(CCc2ccccc2)CC1 | inactive: -3.69% |
| O=c1[nH]c2ccccc2n1C1CCN(C(c2ccccc2OC(F)(F)F)c2nnnn2C2CCCC2)CC1 (configuration not stated) | inactive: -2.65% |
| CCN1CCC(Nc2ccc(Cl)cc2)CC1 | inactive: -2.33% |
| O=C(NCC1(N2CCCCC2)CCCCC1)c1cccc(C(F)(F)F)c1 | inactive: -5.97% |
| CCCCn1nnnc1C(c1cccc2ccccc12)N1CCC(n2c(=O)[nH]c3ccccc32)CC1 (configuration not stated) | inactive: 1.22% |
| CN1CCN(CCOC(=O)C(O)(c2ccccc2)c2ccccc2)CC1 | inactive: -10.2% |
| COc1ccc(NC2CCN(C(=O)OC(C)(C)C)CC2)cc1 | inactive: -6.95% |
| CC(C)c1ccc(C(=O)NCC2(N3CCOCC3)CCCCC2)cc1 | inactive: -6.17% |
| COc1cc(C(=O)NCC2(N3CCCCC3)CCCCC2)ccc1OC(F)F | inactive: -11.7% |
| O=C(NCC1(N2CCOCC2)CCCCC1)c1cc(=O)[nH]c2ccccc12 | inactive: -4.25% |
| CCOc1ccc(C)cc1CN(CCCl)CCCl | inactive: -2.72% |
| O=C1CCN(Cc2ccccc2)CC1 | inactive: -11.7% |
| CC(C)(C)n1nnnc1C(c1ccccc1)N1CCC(n2c(=O)[nH]c3ccccc32)CC1 (configuration not stated) | inactive: 15.1% |
| COc1ccc(NC2CCN(CCc3ccccc3)CC2)c(OC)c1 | inactive: -13% |
| CCOC(=O)N1CCC(Nc2ccc(F)cc2)CC1 | inactive: -5.3% |
| O=C(NCC1(N2CCCCC2)CCCCC1)c1ccc(F)cc1 | inactive: -8.66% |
| O=P1(N(CCCl)CCCl)SCCCS1 | inactive: -4.34% |
| CCCCn1nnnc1C(c1cc2ccccc2o1)N1CCC(n2c(=O)[nH]c3ccccc32)CC1 (configuration not stated) | inactive: 2.14% |
| CCCCOc1ccc(C(=O)NCC2(N3CCOCC3)CCCCC2)cc1 | inactive: -5.14% |
| O=c1[nH]c2ccccc2n1C1CCN(C(c2ccccc2)c2nnnn2C2CCCCC2)CC1 (configuration not stated) | inactive: 5.03% |
| O=c1[nH]c2ccccc2n1C1CCN(C(c2cccc3ccccc23)c2nnnn2C2CCCC2)CC1 (configuration not stated) | inactive: 2.34% |

| SMILES | activation |
| --- | --- |
| COc1cc(C(=O)NCC2(N(C)C)CCCCC2)ccc1OC(F)F | inactive: -5.84% |
| CCOC(=O)N1CCC(Nc2cccc(C)c2)CC1 | inactive: -5.61% |
| CCCCn1nnnc1C(c1cccs1)N1CCC(n2c(=O)[nH]c3ccccc32)CC1 (configuration not stated) | inactive: 1.52% |
| CCCCn1nnnc1C(CC)N1CCC(n2c(=O)[nH]c3ccccc32)CC1 (configuration not stated) | inactive: -2.17% |
| O=C(NCC1(N2CCCCC2)CCCCC1)c1cccs1 | inactive: -3.32% |
| O=C(NCC1(N2CCCCC2)CCCCC1)c1ccc(=O)[nH]c1 | inactive: -3.46% |
| CCC(c1nnnn1C1CCCC1)N1CCC(n2c(=O)[nH]c3ccccc32)CC1 (configuration not stated) | inactive: -1.38% |
| COc1ccc(C(=O)NCC2(N3CCCCC3)CCCCC2)c(OC)c1OC | inactive: -3.52% |
| CC(C)(C)OC(=O)N1CCC(N(C(=O)c2ccccc2)c2ccc(F)cc2)CC1 | inactive: -5.53% |
| COc1ccc(C(=O)NCC2(N3CCCCC3)CCCCC2)cc1 | inactive: -9.95% |
| Cc1cccc(NC2(C#N)CCN(Cc3ccccc3)CC2)c1 | inactive: -2.25% |
| CSc1ccccc1C(=O)NCC1(N2CCCCC2)CCCCC1 | inactive: -10.6% |
| O=C(NCC1(N2CCOCC2)CCCCC1)c1cc2ccccc2o1 | inactive: -5.29% |
| Cc1cc(C)cc(N(C(=O)c2ccccc2)C2CCN(C(=O)OC(C)(C)C)CC2)c1 | inactive: -5.55% |
| O=c1[nH]c2ccccc2n1C1CCN(C(c2ccccc2OC(F)(F)F)c2nnnn2C2CCCCC2)CC1 (configuration not stated) | inactive: -1.59% |
| O=C(NCC1(N2CCCCC2)CCCCC1)c1ccc(Cl)nc1 | inactive: -7.05% |
| CCCCn1nnnc1C(c1ccc(OC)cc1)N1CCC(n2c(=O)[nH]c3ccccc32)CC1 (configuration not stated) | active: 65% |
| CCOC(=O)N1CCC(Nc2ccc(OC)cc2)CC1 | inactive: -6.39% |
| COc1ccc(Cl)cc1C(=O)NCC1(N2CCOCC2)CCCCC1 | inactive: -7.13% |
| O=C(OC1CN2CCC1CC2)C1c2ccccc2Oc2ccccc21 (configuration not stated) | inactive: -8.39% |
| O=c1[nH]c2ccccc2n1C1CCN(C(c2cc3ccccc3o2)c2nnnn2C2CCCCC2)CC1 (configuration not stated) | inactive: 1.25% |
| N#CC1(Nc2ccccc2)CCN(Cc2ccccc2)CC1 | inactive: -1.53% |
| O=C(NCC1(N2CCCCC2)CCCCC1)c1ccc(Cl)s1 | inactive: -7.82% |
